# Apparent affinities of Ab-95 variants for a coronavirus HR2 peptide

Values reported by Engelhart et al. 2022, doi:10.1038/s41597-022-01779-4 (FLAb copy).

Target peptide (SARS-CoV-2 spike, HR2 region): PDVDLGDISGINAS

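Phage display of a naive human antibody library on the peptide gave the parent. The library (AAYL52) carries one to three amino acid substitutions per variant, with no insertions or deletions. The assay is AlphaSeq: two haploid yeast populations carry antibody and antigen on their surface. Pairs that bind mate more often; barcode pairs of the diploids are counted by sequencing. Scores were corrected for input abundance and mapped to Kd with protein pairs of known affinity run in the same pool. There are three technical replicates.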

Parent: Ab-95, a human scFv built as VH, a (GGGGS)3 linker, VL. Only the CDRs of the light chain vary.
VH: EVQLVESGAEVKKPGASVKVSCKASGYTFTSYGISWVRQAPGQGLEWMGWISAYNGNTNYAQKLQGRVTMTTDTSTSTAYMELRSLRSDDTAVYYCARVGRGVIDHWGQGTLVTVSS
VL: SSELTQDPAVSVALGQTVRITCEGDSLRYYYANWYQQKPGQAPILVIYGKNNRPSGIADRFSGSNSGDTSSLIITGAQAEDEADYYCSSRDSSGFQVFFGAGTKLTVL

Positions count from residue 1 of the parent VL; E23T puts T in place of E. Numbers give log10(Kd / nM), so 0 is 1 nM and 3 is 1 µM. Smaller is tighter. "nd" marks a missing value. The strain was present, yet no cells mated with the target were sequenced in that replicate, which points to weak or no binding.

| # | changes | log10 Kd (nM) by replicate | control signals |
|---|---|---|---|
| 1 | E23T+A32E+F95N | 4.81 / 3.84 / nd | 4/9 (4.39) |
| 2 | R28T+P54V+F98A | 3.47 / nd / nd | 1/9 (3.44) |
| 3 | F95K+V97G+F98E | nd / nd / 2.74 | 0/9 |
| 4 | N52S | 1.52 / 1.54 / 1.11 | 6/9 (3.73) |
| 5 | A32I+G49P+N52V | nd / 4.42 / 4.13 | 2/9 (3.78) |
| 6 | L27I+S92N+Q96K | 5.36 / 2.87 / 4.19 | 2/9 (3.28) |
| 7 | E23F+R28T+Y29M | nd / 5.56 / nd | 3/9 (3.54) |
| 8 | A32K+R90V+V97H | nd / 4.64 / nd | 2/9 (4.13) |
| 9 | Y30T+P54C+F95W | 2.46 / 3.13 / 2.86 | 0/9 |
| 10 | G49P+S88C+S92N | 3.03 / nd / nd | 2/9 (3.40) |
| 11 | Y31A+F95M+V97W | 1.40 / 1.09 / 1.34 | 0/9 |
| 12 | L27M+A32R+S89M | 4.41 / nd / nd | 4/9 (3.33) |
| 13 | N51M+V97P+F98T | 3.05 / nd / nd | 2/9 (3.80) |
| 14 | S26E+P54M+F98S | 3.98 / 3.67 / nd | 2/9 (3.54) |
| 15 | D91T | 2.88 / 2.99 / 2.62 | 2/9 (4.62) |
| 16 | Y29D+P54F+R90A | 3.09 / 4.12 / 2.32 | 4/9 (3.69) |
| 17 | Y30Q+V97H | 1.35 / 1.39 / 0.74 | 4/9 (4.20) |
| 18 | Y31P+A32R | 3.40 / 4.14 / 3.45 | 2/9 (4.66) |
| 19 | K50E+N51D+P54E | 2.96 / 4.83 / 3.73 | 3/9 (3.84) |
| 20 | S26C+A32H+R90L | 4.53 / nd / nd | 3/9 (3.96) |
| 21 | D25C+Y31H+S55N | 3.07 / 3.33 / 4.44 | 2/9 (3.72) |
| 22 | D25P+G49E+V97P | 3.83 / 3.26 / 3.91 | 3/9 (4.59) |
| 23 | S26G+S89K+R90W | nd / nd / nd | 4/9 (3.70) |
| 24 | D25Y+Y31C+Q96F | nd / 3.39 / nd | 1/9 (4.15) |
| 25 | G24I+Y29M+N51C | 3.82 / nd / nd | 4/9 (4.26) |
| 26 | D25Y+R53Y+S88D | 3.97 / nd / 3.37 | 4/9 (4.28) |
| 27 | Y30I+Y31D+S88A | 1.75 / 1.71 / 1.23 | 0/9 |
| 28 | A32L | 2.81 / 2.55 / 2.29 | 2/9 (3.33) |
| 29 | Y30K+S88Q+S89W | 3.30 / 2.87 / 3.44 | 4/9 (4.32) |
| 30 | G24F+G49C+S93N | 3.79 / nd / nd | 2/9 (3.00) |
| 31 | R53S+S55V+Q96E | 2.66 / nd / 4.30 | 5/9 (3.99) |
| 32 | Y29G+N51W+V97T | nd / 4.08 / nd | 1/9 (3.73) |
| 33 | S26W+N52Q | 3.79 / 3.30 / 2.54 | 3/9 (3.47) |
| 34 | P54W+S93Q | 3.91 / 3.25 / nd | 1/9 (5.08) |
| 35 | N33P+P54H+S93Y | nd / 4.42 / nd | 2/9 (4.23) |
| 36 | S92F+S93P+Q96W | nd / nd / nd | 0/9 |
| 37 | N51H+G94P+F95W | 3.43 / 3.22 / 2.43 | 3/9 (4.55) |
| 38 | Y31S+K50C+S93V | 3.73 / 3.13 / 2.49 | 3/9 (4.08) |
| 39 | Y29W+N52H | 2.93 / 4.51 / nd | 0/9 |
| 40 | Y31P+G49I+S55V | nd / 4.09 / 3.88 | 4/9 (4.08) |
| 41 | Y31E+G49L+N51I | nd / nd / nd | 0/9 |

In this assay the parent's reference entry averaged 2.31; its copy inside this library read 2.25. Nonspecific signal, from three strains lacking the peptide, appeared in 28% of pairings of library AAYL52, centred on 3.91 (5% of these signals below 2.90); values are not corrected for it. Also given: how often the same scFv was detected with the empty control strains, with their mean in brackets.